# Source: paper PMC9014295 (Frontiers in Pharmacology, 2022)
# Test system: zebrafish fosab gene
# Test: RNA-seq analysis of zebrafish larvae liver (fosab)
# Type: in vivo, Danio rerio
# Conditions: 2 mM, exposed 3 dpf, collected 6 dpf
# Protocol: As previously described ([Han et al., 2018a]), the process of ribonucleic acid sequencing (RNA-seq) analysis was carried out by CapitalBio Corporation (Beijing, China). […] Cytoscape software was employed to map the drug–pathway network.
smiles,measurement,value
CC[C@H]1OC(=O)[C@H](C)[C@@H](O[C@H]2C[C@@](C)(OC)[C@@H](O)[C@H](C)O2)[C@H](C)[C@@H](O[C@@H]2O[C@H](C)C[C@H](N(C)C)[C@H]2O)[C@](C)(O)C[C@@H](C)CN(C)[C@H](C)[C@@H](O)[C@]1(C)O [Azithromycin],Fold change of fosab gene (RNA-seq),3.27
